Curated experimental data: properties

Source: data files of OPERA 2.9 (Mansouri et al.), github.com/kmansouri/OPERA.

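The OPERA project collected these measurements from public sources as training and test data for property models. A listed value is a point estimate from one report or more. Method and conditions are not stated for these values. A value may pool stereoisomers or salt forms, and the file does not say which form was measured. Some entries may be limits or estimates that an upstream database listed as plain numbers.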

Melting points are in °C.
The boiling point refers to atmospheric pressure (760 mmHg), by the definition of the set.
The octanol-water partition coefficient is given as log10; larger values mean a more lipophilic compound.
Water solubility is log10 of mol/L, nominally at 25 °C; higher is more soluble.
Vapor pressures (log10 mmHg) refer to near room temperature, 15 to 30 °C; higher is more volatile.
Henry's law constant (air-water partitioning) is log10 of atm·m3/mol, nominally at 25 °C.
fu is the fraction unbound in human plasma, from 0 to 1.
Cells with "n/a" have no entry in this list.

mp (°C) | boiling point (°C) | logP | water solubility (log10 mol/L) | log vapor pressure (log10 mmHg) | log Henry constant (log10 atm·m3/mol) | fu | SMILES
n/a | n/a | 4.6 | n/a | -0.166 | n/a | n/a | C=COC(=O)CCCCC(C)(C)C
n/a | n/a | n/a | -4.44 | -6.269 | -7.893 | n/a | CC(O)(c1ccc(Cl)cc1)c1ccc(Cl)cc1
n/a | n/a | 2.8 | -3.095 | -6.924 | n/a | n/a | CCC(COC(=O)CCS)(COC(=O)CCS)COC(=O)CCS
252 | n/a | n/a | -3.851 | n/a | n/a | n/a | COCCCNS(=O)(=O)c1ccc([O-])c(/N=N/c2c([O-])ccc3ccccc23)c1.COCCCNS(=O)(=O)c1ccc([O-])c(/N=N/c2c([O-])ccc3ccccc23)c1.[Co+3].[Na+]
-88.9 | n/a | n/a | n/a | -2.824 | n/a | n/a | C=CC(=O)OCC(C)(COC(=O)C=C)N=C=O
130.7 | n/a | 3.49 | -4.813 | -12.34 | n/a | n/a | CCCc1nc2c(C)cc(-c3nc4ccccc4n3C)cc2[nH]1
-26 | 158 | 5.3 | -6.91 | 0.867 | n/a | n/a | FC(F)(F)C(F)(F)C(F)(F)C(F)(F)C(F)(F)C(F)(F)CCS
67.95 | n/a | 6.105 | -6.788 | n/a | n/a | n/a | CCCCC1(CCCC)c2ccccc2-c2ccc(C(=O)C(C)(C)N3CCOCC3)cc21
n/a | n/a | n/a | -3.397 | n/a | n/a | 0.2 | COCCOc1cnc(NS(=O)(=O)c2ccccc2)nc1
181.1 | n/a | 3.6 | -7.115 | n/a | n/a | n/a | N#CCCN(CCC#N)c1ccc(N=Nc2c(Cl)cc([N+](=O)[O-])cc2Cl)cc1
-11.9 | n/a | 4.535 | -4.31 | -2.523 | n/a | n/a | CCCCCOC(=O)c1ccccc1O
-72.4 | n/a | 2.4 | -1.997 | 0.537 | n/a | n/a | C=CCCCCCC=O
252.5 | n/a | n/a | -1.081 | n/a | n/a | n/a | C[C@H](O)[C@H](O)[C@H]1CNc2[nH]c(N)nc(=O)c2N1
146 | n/a | n/a | -8.94 | n/a | n/a | n/a | Clc1ccc(Oc2c(Cl)c(Cl)c(Cl)c(Cl)c2Cl)cc1
70.35 | n/a | n/a | -6.334 | n/a | n/a | n/a | CCCCCCCCCCCCCCCCCCCCCC(=O)O[C@H]1[C@@H]([C@@H](CO)OC(=O)CCCCCCCCCCCCCCCCCCCCC)OC[C@@H]1OC(=O)CCCCCCCCCCCCCCCCCCCCC
n/a | n/a | 0.263 | n/a | -2.139 | n/a | n/a | OCCC1CCCCN1 (configuration not stated)
333 | n/a | -0.05 | -2.675 | n/a | n/a | n/a | Cc1cc(Nc2cc(S(=O)(=O)[O-])c(N)c3c2C(=O)c2ccccc2C3=O)cc(S(=O)(=O)NCCO)c1C.[Na+]
86.85 | n/a | 2.33 | n/a | n/a | n/a | n/a | CC1(C)[C@H]2[C@H](C(Br)(Br)Br)OC(=O)[C@H]21
206 | n/a | n/a | -1.086 | n/a | n/a | n/a | C[C@H](CCC(=O)NCCS(=O)(=O)O)[C@H]1CC[C@H]2[C@@H]3CC[C@@H]4C[C@H](O)CC[C@]4(C)[C@H]3C[C@H](O)[C@]12C
n/a | 196.6 | 2.89 | -2.406 | -0.052 | n/a | n/a | CCOC(=O)CC1C=CCC1 (configuration not stated)
363.7 | n/a | n/a | -2.729 | n/a | n/a | n/a | O=S(=O)(O)c1cc(O)c2ccc(Nc3ccccc3)cc2c1
207.8 | n/a | n/a | n/a | -10.43 | n/a | n/a | Nc1ccc(C(c2ccc(N)cc2)c2ccc(N)cc2)cc1
n/a | n/a | n/a | -5.169 | -5.375 | n/a | n/a | c1cc2ccc1CCc1ccc(cc1)CC2
n/a | n/a | 1.3 | n/a | -4.126 | n/a | n/a | NCCCCCCNCCCCCCN
n/a | n/a | 1.1 | n/a | -4.958 | n/a | n/a | CCCCCCCC(=O)NCCN(CCO)CCC(=O)O
-32.3 | n/a | n/a | -7.946 | -5.347 | n/a | n/a | CCCCCCC(C)OC(=O)CCCCC(=O)OC(C)CCCCCC (configuration not stated)
67.4 | n/a | n/a | n/a | -9.593 | n/a | n/a | CCCCCCCCCCCCCCCCCC(=O)NCCCN(C)C
41.7 | n/a | n/a | -8.431 | n/a | n/a | n/a | CCCCCCCC/C=C\CCCCCCCC(=O)NCCCN(C)CCCNC(=O)CCCCCCC/C=C\CCCCCCCC
n/a | n/a | 4 | -4.159 | n/a | n/a | 0.3 | N=C(N)c1ccc(OCCCCCOc2ccc(C(=N)N)cc2)cc1
n/a | n/a | 3.4 | -3.287 | -2.462 | n/a | n/a | C=CCOC(=O)/C=C/c1ccccc1
137.2 | 341 | n/a | -5.44 | n/a | n/a | n/a | Cc1cc(C)c(O)c(-c2cc(C)cc(C)c2O)c1
99.8 | n/a | n/a | -3.123 | n/a | n/a | n/a | COC(=O)[C@]1(NC(=O)Cc2cc(C)ccc2C)CC[C@@H](OC)CC1
n/a | n/a | 5.4 | -4.446 | -1.498 | n/a | n/a | CCC(C)(C)C1CCCCC1OC(C)=O (configuration not stated)
n/a | n/a | -1.1 | n/a | -8.727 | n/a | n/a | Cl.O=C(c1ccc(F)cc1)C1CCNCC1
n/a | n/a | 4.1 | -2.274 | -3.222 | n/a | n/a | CCCCCCCCN1CCCC1=O

The last 5 entries again:

{"smiles": "Cc1cc(C)c(O)c(-c2cc(C)cc(C)c2O)c1", "mp (°C)": "137.2", "boiling point (°C)": "341", "water solubility (log10 mol/L)": "-5.44"}
{"smiles": "COC(=O)[C@]1(NC(=O)Cc2cc(C)ccc2C)CC[C@@H](OC)CC1", "mp (°C)": "99.8", "water solubility (log10 mol/L)": "-3.123"}
{"smiles": "CCC(C)(C)C1CCCCC1OC(C)=O", "stereo": "configuration not stated", "logP": "5.4", "water solubility (log10 mol/L)": "-4.446", "log vapor pressure (log10 mmHg)": "-1.498"}
{"smiles": "Cl.O=C(c1ccc(F)cc1)C1CCNCC1", "logP": "-1.1", "log vapor pressure (log10 mmHg)": "-8.727"}
{"smiles": "CCCCCCCCN1CCCC1=O", "logP": "4.1", "water solubility (log10 mol/L)": "-2.274", "log vapor pressure (log10 mmHg)": "-3.222"}